Earlier results in patent US20060134087A1, “ITI-D1 Kunitz domain mutants as hNE inhibitors” (Dyax Corp., priority 1988, published 2006).

Protein sequences, listed by entry. Tags and fused reporters are not part of them. Residues count along the entry.
UniProt P00772, 27-266: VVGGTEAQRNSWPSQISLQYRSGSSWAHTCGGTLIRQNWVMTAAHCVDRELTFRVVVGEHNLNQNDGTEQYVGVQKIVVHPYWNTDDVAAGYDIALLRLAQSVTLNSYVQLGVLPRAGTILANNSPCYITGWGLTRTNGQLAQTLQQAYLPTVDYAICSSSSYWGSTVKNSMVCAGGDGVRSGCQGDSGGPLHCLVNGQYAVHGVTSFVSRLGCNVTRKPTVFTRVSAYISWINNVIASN

Columns and labels:
[1] = target: T1, Chymotrypsin (bovine pancreas) (Bos taurus, UniProt P00766); details: BPTI P1 derivatives; read-out: Dissociation constant (symbol); cited from earlier work
T1 construct: host or cells: bovine pancreas

[2] = target: T2, Elastase (porcine pancreas) (Sus scrofa, UniProt P00772); details: BPTI P1 derivatives; read-out: Dissociation constant (symbol); cited from earlier work
T2 construct: host or cells: porcine pancreas

[3] = target: T3, Elastase (human leukocytes) (Homo sapiens, UniProt P08246); details: BPTI P1 derivatives; read-out: Dissociation constant; cited from earlier work
T3 construct: host or cells: human leukocytes
T3 sequence (P08246 30-267): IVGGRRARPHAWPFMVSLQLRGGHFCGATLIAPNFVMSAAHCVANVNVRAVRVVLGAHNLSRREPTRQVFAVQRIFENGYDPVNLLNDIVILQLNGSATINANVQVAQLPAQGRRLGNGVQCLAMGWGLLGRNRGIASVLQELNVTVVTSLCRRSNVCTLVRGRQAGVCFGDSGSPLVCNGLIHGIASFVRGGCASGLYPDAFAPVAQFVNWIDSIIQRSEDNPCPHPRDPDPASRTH

[4] = target: T4, Trypsin (bovine pancreas) (Bos taurus, UniProt P00760); details: BPTI P1 derivatives; read-out: Dissociation constant (symbol); cited from earlier work
T4 construct: host or cells: bovine pancreas
T4 sequence (P00760 24-246): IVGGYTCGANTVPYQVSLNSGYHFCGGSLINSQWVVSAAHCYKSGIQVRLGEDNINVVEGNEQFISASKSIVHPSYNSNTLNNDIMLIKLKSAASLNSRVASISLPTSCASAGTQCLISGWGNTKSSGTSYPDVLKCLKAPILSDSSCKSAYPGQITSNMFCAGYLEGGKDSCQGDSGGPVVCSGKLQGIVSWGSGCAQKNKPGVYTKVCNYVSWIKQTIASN

For glycine, the Kd [1] is given as over 3.5 µM, the Kd [2] is given as at least 3.5 µM and the Kd [3] is given as 0.007 µM. The Kd [4] was over 3.5 µM.
